“And” between values parts separate entries of the source, which are not always exact repeats. Identical values can stand only once.
Target: CB1 receptor (Homo sapiens, UniProt P21554)
Assay: [11C]MePPEP PET, VT by classic spectral analysis parametric maps (SA-maps)
Format: in vivo
Parameters: assess the stability of CB1-receptor quantification in humans in vivo; from tissue; host or cells: living human brain (healthy volunteers), in vivo PET
Protocol: Continuous and intermittent blood samples were collected to allow the subsequent generation of metabolite-corrected arterial plasma time–activity curves (TACs) ([Hammers et al., 2008]). During the first 15 min blood was withdrawn continuously at a rate of 300 ml/h and radioactivity measured in a BGO detection system ([Jones et al., 1994]). To quantify plasma and whole blood radioactivity, as well as to allow quantification of the parent fraction of the radiotracer, intermittent discrete (10 ml) samples were taken with heparinised syringes before the scan (baseline) and at the following time points after scan start: 3, 5, 10, 15, 20, 30, and 50 min. At 75 min, a larger 17 ml sample was taken to allow quantification despite radioactivity decay. […] Continuous plasma input functions (IF) were derived by cross-calibration and combination of the continuous and discrete data, multiplication with the fitted plasma-over-blood ratio, and correction for parent radiotracer fraction, as described in detail in previous studies ([Hammers et al., 2007a], [Jones et al., 1994]).
The resulting parametric maps of VT values were then sampled in the eight selected ROIs.

Sequences of proteins named here, by UniProt entry; tags and fusion partners are left off.
UniProt P21554, whole entry: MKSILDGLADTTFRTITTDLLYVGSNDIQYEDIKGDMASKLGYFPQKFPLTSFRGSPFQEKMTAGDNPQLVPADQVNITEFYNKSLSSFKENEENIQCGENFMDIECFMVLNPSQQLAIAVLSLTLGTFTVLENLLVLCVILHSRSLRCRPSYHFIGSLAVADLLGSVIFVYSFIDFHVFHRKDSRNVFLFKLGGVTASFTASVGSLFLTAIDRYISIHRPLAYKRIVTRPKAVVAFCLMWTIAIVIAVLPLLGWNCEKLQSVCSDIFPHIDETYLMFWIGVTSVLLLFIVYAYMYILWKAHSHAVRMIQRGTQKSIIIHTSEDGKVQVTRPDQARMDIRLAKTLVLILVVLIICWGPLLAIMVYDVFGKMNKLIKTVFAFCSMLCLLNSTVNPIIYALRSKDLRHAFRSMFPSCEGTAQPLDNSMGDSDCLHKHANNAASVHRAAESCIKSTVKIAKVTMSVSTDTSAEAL

For `COc1cccc([C@H]2C[C@@H](N[C@H](C)c3ccccc3)C(=O)N2c2ccc(C(F)(F)F)cc2)c1` [[^11C]MePPEP, (3R,5R)-5-(3-methoxy-phenyl)-3-((R)-1-phenyl-ethylamino)-1-(4-trifluoro-methyl-phenyl)-pyrrolidin-2-one], the “Ratio pallidum/pons of VT” value was 3.6, the “Median % diff (test–retest) of VT, mean (SD) across regions” value (8 ROIs) was 13.5 (3.3) % and 13.5 ± 3.3% and the “ICC of VT” value (ACG) was 0.85. For the same molecule, the “Mean BS % CV of VT” value (ACG) was 34.7%, the “Median % diff (test–retest) of VT” value (ACG) was 12.5% and the “ICC of VT” value (Accumbens) was 0.83. For the same molecule, the “Mean BS % CV of VT” value (Accumbens) was 36.0%, the “Median % diff (test–retest) of VT” value (Accumbens) was 12.3% and the VT median (Accumbens) was 9.5. The “ICC of VT” value (Caudate) was 0.81, the “Mean BS % CV of VT” value (Caudate) was 40.0% and the “Median % diff (test–retest) of VT” value (Caudate) was 12.3%. The “ICC of VT” value (Hippocampus) was 0.87, the “Mean BS % CV of VT” value (Hippocampus) was 34.2% and the “Median % diff (test–retest) of VT” value (Hippocampus) was 9.6%. The “ICC of VT” value (IFG) was 0.85, the “Mean BS % CV of VT” value (IFG) was 37.0% and the “Median % diff (test–retest) of VT” value (IFG) was 12.0%. For the same molecule, the “ICC of VT” value (Pallidum) was 0.83, the “Mean BS % CV of VT” value (Pallidum) was 35.4% and the “Median % diff (test–retest) of VT” value (Pallidum) was 12.6%. The “ICC of VT” value (Pons) was 0.81, the “Mean BS % CV of VT” value (Pons) was 39.0% and the “Median % diff (test–retest) of VT” value (Pons) was 20.2%. The “ICC of VT” value (Thalamus) was 0.76, the “Mean BS % CV of VT” value (Thalamus) was 37.1% and the “Median % diff (test–retest) of VT” value (Thalamus) was 16.8%.

— publication PMC4283194 (Neuroimage, 2014)
